1 substance from patent US7151165B2, “Antibodies immunospecific for a novel human G-protein coupled receptor family” (priority 1999, dated 2006) can be followed below.

Sequences of proteins named here, by UniProt entry; tags and fusion partners are left off.
UniProt Q9GZQ4, whole entry A395T: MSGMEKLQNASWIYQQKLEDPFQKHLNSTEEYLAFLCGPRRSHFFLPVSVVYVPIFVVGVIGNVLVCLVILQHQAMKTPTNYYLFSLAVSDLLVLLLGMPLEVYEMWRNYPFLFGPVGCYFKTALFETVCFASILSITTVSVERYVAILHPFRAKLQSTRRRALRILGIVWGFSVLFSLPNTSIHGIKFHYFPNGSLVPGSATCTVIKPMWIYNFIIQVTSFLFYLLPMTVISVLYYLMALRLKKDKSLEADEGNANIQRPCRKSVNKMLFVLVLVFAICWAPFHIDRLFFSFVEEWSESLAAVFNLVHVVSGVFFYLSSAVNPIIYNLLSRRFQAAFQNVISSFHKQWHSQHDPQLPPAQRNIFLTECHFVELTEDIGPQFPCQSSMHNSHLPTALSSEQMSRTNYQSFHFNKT

The experiment deals with T1, IGS4A (Homo sapiens, UniProt Q9GZQ4, A395T).
T1 construct: expressed in transfected cells; host or cells: CHOGα16 (CHO cells stably expressing Gα16, Molecular Devices), transfected with IGS4-pcDNA3.1
Briefly: FLIPR intracellular calcium mobilisation in CHOGα16-IGS4 cells (IGS4A). In kind it is cell-based. The settings on record: read-out: EC50 for IGS4A; molar value printed beside log EC50. The procedure:
A. Method and Materials for IGS-4 Transfected CHOGα16IGS4 cells.
The following materials were used in the experiments: Vector containing IGS4-DNA sequence (IGS4-pcDNA3.1); SuperFect Transfection Reagent (Qiagen): Nut-Mix F12 (Gibco) with 10% FCS, 0.028 mg/ml Gentamycin (Gibco); 0.22 mg/ml Hygromycin (Gibco).
Materials used for clone selection: Nut-Mix F12 with 10% FCS; 0.028 mg/ml Gentamycin; 0.22 mg/ml Hygromycin and 0.55 mg/ml Geneticin (Gibco).
The following method was applied: Transfection with SuperFect Transfection Reagent was carried out as described by the manufacturer (Qiagen). Cells were plated in 24-well plates to 50% confluence. Per well […] plasmid-DNA with 1 μl SuperFect Transfection Reagent was added. After 24 hours the medium was changed and transfected cell clones were selected by Geneticin-containing selection-medium. […]
The method was worked as follows: The 2 mM stock of dye was mixed with an equal volume of 20% (w/v) pluronic acid immediately before adding to the loading-Buffer. […] In order to calculate the, background fluorescence, some wells were not dye loaded. The background fluorescence in these wells results from autofluorescence of the cells. After dye loading, cell were washed three times with Wash-Buffer (automated Denley cell washer) to reduce the basal fluorescence to 20.000–25.000 counts above background. […]
A general note: Calcium flux is commonly read through the fluorescence of an indicator in the cells.

By EC50 is commonly meant the concentration giving half of the maximal effect. For neuromedin U-25, the EC50 is 0.658 µM.
